Each structure is given as a SMILES string.

This assay deals with T1, Histone deacetylase 8 (Homo sapiens, UniProt Q9BY41).
T1 sequence (Q9BY41 whole entry): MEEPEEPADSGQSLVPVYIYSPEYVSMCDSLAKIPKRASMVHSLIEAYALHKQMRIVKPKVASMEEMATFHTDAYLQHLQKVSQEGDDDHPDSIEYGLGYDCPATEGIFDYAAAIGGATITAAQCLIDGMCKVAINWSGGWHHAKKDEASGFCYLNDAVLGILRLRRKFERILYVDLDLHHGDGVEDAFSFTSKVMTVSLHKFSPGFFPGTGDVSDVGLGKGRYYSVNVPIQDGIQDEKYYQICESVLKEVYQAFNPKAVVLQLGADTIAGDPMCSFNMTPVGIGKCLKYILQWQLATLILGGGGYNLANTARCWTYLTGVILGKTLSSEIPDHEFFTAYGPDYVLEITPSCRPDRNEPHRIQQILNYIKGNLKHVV
The assay can be described thus: Inhibition of N terminal hexahistidine-tagged human HDAC8 expressed in Sf9 cells after 1 hr by fluorescence assay.

As to `N[C@H](Cc1ccc(Cl)cc1Cl)C(=O)N1Cc2ccccc2C1`, the IC50 worked out at 90 nM.

Broadly, the IC50 is the midpoint of a concentration-inhibition curve. A lower IC50 goes with higher potency.

The values above are taken from ChEMBL document CHEMBL1811912, “Human HDAC isoform selectivity achieved via exploitation of the acetate release channel with structurally unique small molecule inhibitors” (Bioorg Med Chem, 2011).
